Legend:
[1] = tested on: arecoline-induced increase in blood pressure; test: Arecoline test: CNS-penetration, in vivo (rat), reduction in the arecoline-induced increase in blood pressure; conditions: i.v.
Protocol: Cerebroavailable antimuscarinics block this central effect. […] The trachea is incubated, the animals are respirated with an air/oxygen mixture (80 breaths per minute). The blood pressure is recorded after canulation of the carotid artery by means of a pressure recorder (Bell and Howell Type 4-327-I). The test substances are administered through the jugular vein ([…]). […] The arecoline is administered (in doses of 0.3 mg/kg) at 15 minute intervals. After 2 comparison values, the test substance is injected in increasing doses 5 minutes before the next administration of arecoline. The results obtained were compared with the average starting values and determined as the percentage inhibition.

By UniProt entry, the sequences of proteins in these tests, tags left out.
UniProt P10980, whole entry: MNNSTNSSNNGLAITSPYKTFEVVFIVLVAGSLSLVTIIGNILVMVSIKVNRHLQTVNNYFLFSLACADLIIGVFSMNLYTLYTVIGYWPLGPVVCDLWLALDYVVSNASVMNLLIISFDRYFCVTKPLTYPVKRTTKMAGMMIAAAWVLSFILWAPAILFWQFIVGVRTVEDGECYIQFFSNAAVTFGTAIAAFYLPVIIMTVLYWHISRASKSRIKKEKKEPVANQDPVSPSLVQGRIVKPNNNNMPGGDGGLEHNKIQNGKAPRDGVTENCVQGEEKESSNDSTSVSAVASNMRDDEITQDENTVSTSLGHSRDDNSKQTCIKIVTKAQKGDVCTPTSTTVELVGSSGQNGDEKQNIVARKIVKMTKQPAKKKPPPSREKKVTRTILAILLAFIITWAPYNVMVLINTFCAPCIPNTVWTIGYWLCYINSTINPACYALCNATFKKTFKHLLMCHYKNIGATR

[2] = target: T1, M2 (Heart) muscarinic receptors (Rattus norvegicus, UniProt P10980); test: Receptor binding test, [3H]NMS, heart (M2); design: species or system Male Wistar rats; conditions: ratio of Ki M1 (cortex) to Ki M2 (heart)
T1 construct: The cerebral cortex, heart and salivary glands were removed, washed and homogenised; from tissue; host or cells: rat heart homogenate (Wistar, Chbb: THOM)

SMILES | effect on arecoline-mediated central effects / increase in blood pressure (in words) [1] | Selectivity ratio (M1 /M2) [2]
O=C1Nc2cccnc2N(C(=O)CCCCCN2CCCCC2)c2ccccc21 [Substance O, 5,11-dihydro-11-[1-oxo-6-(1-piperidinyl)-1-hexyl]-6H-pyrido[2,3-b][1,4]benzodiazepin-10-one] | had no effect on the increase in blood pressure caused by arecoline | 
CCN(CC)CC1CCCCN1CC(=O)N1c2ccccc2C(=O)Nc2cccnc21 (stereo not shown) [Substance H, 11-[[2-[(diethylamino)methyl]-1-piperidinyl]acetyl]-5,11-dihydro-6H-pyrido[2,3-b][1,4]benzodiazepin-6-one] | had no effect on the increase in blood pressure caused by arecoline | 6
CCN(CC)CC1CCCCN1CC(=O)N1c2cc(Cl)ccc2C(=O)Nc2cccnc21 (racemic) [Substance K, (±)-9-chloro-11-[[2-[(diethylamino)methyl]-1-piperidinyl]-acetyl]-5,11-dihydro-6H-pyrido[2,3-b]-[1,4]benzodiazepin-6-one] | had no effect on the increase in blood pressure caused by arecoline | 

Reference: patent US5641772A, “Condensed diazepinones, processes for preparing them and agents containing these compounds for treating diseases of the central nervous system and for promoting cerebral blood circulation” (Dr. Karl Thomae GmbH, priority 1991, dated 1997)
